In US20050131028A1, “Methods and compositions for the extended duration treatment of pain, inflammation and inflammation-related disorders” (Pharmacia Corporation, priority 2003, published 2005):
Values joined by “and” are separate entries in the source; they are usually repeats but may differ in a detail not shown here. Equal values may be shown once.

The chains behind the UniProt entries cited, without tags or fusion partners. Residues count along the entry.
UniProt P23219, 24-599: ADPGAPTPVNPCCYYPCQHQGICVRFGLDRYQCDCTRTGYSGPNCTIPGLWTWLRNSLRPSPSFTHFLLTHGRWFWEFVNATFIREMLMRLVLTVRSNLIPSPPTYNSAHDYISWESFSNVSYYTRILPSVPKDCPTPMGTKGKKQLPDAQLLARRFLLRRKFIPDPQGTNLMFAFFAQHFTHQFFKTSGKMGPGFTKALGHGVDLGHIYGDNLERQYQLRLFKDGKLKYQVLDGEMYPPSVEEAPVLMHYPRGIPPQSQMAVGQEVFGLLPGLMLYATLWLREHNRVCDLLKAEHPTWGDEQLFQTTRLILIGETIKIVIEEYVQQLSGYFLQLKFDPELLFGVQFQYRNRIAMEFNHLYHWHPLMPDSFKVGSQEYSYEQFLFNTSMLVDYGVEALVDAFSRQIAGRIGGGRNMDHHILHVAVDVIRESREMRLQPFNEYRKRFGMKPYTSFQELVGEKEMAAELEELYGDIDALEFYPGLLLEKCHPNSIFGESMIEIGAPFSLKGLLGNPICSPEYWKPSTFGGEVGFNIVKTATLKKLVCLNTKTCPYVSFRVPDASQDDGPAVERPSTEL

Key:
in vivo [1] = details: beagle, dog, po, 4 mg/kg
in vivo [2] = details: rat, po, 2 mg/kg
in vivo [3] = details: beagle, dog, po, 2 mg/kg
hCOX-1 = hCOX-1 (Homo sapiens, UniProt P23219); test: hCOX-1 enzyme inhibition (IC50); details: hCOX-1 IC50, repeated experimental results listed separately

SMILES	half-life (in vivo [1])	half-life (in vivo [2])	half-life (in vivo [3])	IC50 (hCOX-1)
NS(=O)(=O)c1ccc(-n2nc(C(F)(F)F)cc2-c2ccccc2)cc1	6 to 9 h	7.2 h	24 h	–
COc1c(Cl)cc(-c2cc(C(F)(F)F)nn2-c2ccc(S(N)(=O)=O)cc2)cc1Cl [4-[5-(3,5-dichloro-4-methoxyphenyl)-3-(trifluoromethyl)-1H-pyrazol-1-yl]benzenesulfonamide]	–	–	–	300 µM and > 500 µM
